Membrane permeability of cyclic peptides

PAMPA is the parallel artificial membrane permeability assay, which has no cells and reads passive diffusion. RRCK values come from monolayers of low-efflux MDCK cells. EPSA reports exposed polarity as measured by chromatography; lower is less polar. Values are log10 P with P in cm/s, so -5 is more permeable than -7. Entries marked < or ≤ lay at or below the stated limit. "–" marks a cell with nothing listed here.

PAMPA (log10 cm/s) | RRCK (log10 cm/s) | EPSA (Å2) | SMILES
-4.50 | – | – | CCCC[C@@H]1NC(=O)[C@H](CCCC)N(C)C(=O)[C@H](Cc2ccccc2)N(C)C(=O)CSC[C@@H](C(=O)NC)NC(=O)[C@H](CCCC)N(C)C(=O)[C@@H]2CCCN2C1=O
-5.30 | – | 77 | CCCC[C@@H]1NC(=O)[C@H](CCCC)NC(=O)[C@H](CCCC)N(C)C(=O)[C@@H]2CCCN2C(=O)[C@H](CCCC)N(C)C(=O)[C@H](Cc2ccccc2)NC(=O)CSC[C@@H](C(=O)NC)NC1=O
-5.10 | – | – | CCCC[C@@H]1NC(=O)[C@H](CCCC)NC(=O)[C@H](CCCC)NC(=O)[C@H](CCCC)N(C)C(=O)[C@@H](Cc2ccccc2)NC(=O)CSC[C@@H](C(=O)NC)NC1=O
< -5.70 | – | – | CCCC[C@@H]1NC(=O)[C@H](CCCC)NC(=O)[C@H](CCCC)N(C)C(=O)[C@H](CCCC)NC(=O)[C@@H](Cc2ccccc2)NC(=O)CSC[C@@H](C(=O)NC)NC1=O
– | < -6.46 | – | CCCC[C@@H]1NC(=O)[C@H](CCCC)N(C)C(=O)[C@H](CCCC)N(C)C(=O)[C@H](CCCC)N(C)C(=O)[C@H](CCCC)NC(=O)[C@H](CCCC)N(C)C(=O)[C@H](Cc2ccccc2)NC(=O)CSC[C@@H](C(=O)NC)NC1=O
-4.30 | -5.41 | 74 | CCCC[C@@H]1NC(=O)[C@H](Cc2ccccc2)NC(=O)CSC[C@@H](C(=O)NC)NC(=O)[C@H](CCCC)N(C)C(=O)[C@H](CCCC)NC(=O)[C@H](CCCC)N(C)C1=O
-5.80 | -6.22 | 96 | CCCC[C@@H]1NC(=O)[C@H](CCCC)NC(=O)[C@@H]2CCCN2C(=O)[C@H](CCCC)NC(=O)[C@H](Cc2ccccc2)NC(=O)CSC[C@@H](C(=O)NC)NC1=O
-4.30 | -5.10 | 69 | CCCC[C@@H]1NC(=O)[C@H](Cc2ccccc2)N(C)C(=O)CSC[C@@H](C(=O)NC)N(C)C(=O)[C@H](CCCC)NC(=O)[C@H](CCCC)N(C)C(=O)[C@H](CCCC)NC1=O
-4.60 | -5.82 | 75 | CCCC[C@@H]1NC(=O)[C@H](CCCC)N(C)C(=O)[C@H](CCCC)NC(=O)[C@H](CCCC)N(C)C(=O)[C@@H](Cc2ccccc2)NC(=O)CSC[C@@H](C(=O)NC)NC1=O
< -6.00 | – | – | CCCC[C@@H]1NC(=O)[C@H](CCCC)NC(=O)[C@H](CCCC)N(C)C(=O)[C@@H](Cc2ccccc2)NC(=O)CSC[C@@H](C(=O)NC)N(C)C(=O)[C@H](CCCC)NC1=O
-4.50 | -5.20 | 66 | CCCC[C@@H]1NC(=O)[C@H](CCCC)N(C)C(=O)[C@@H]2CCCN2C(=O)[C@H](CCCC)NC(=O)[C@H](Cc2ccccc2)N(C)C(=O)CSC[C@@H](C(=O)NC)N(C)C1=O
-4.60 | – | – | CCCC[C@@H]1NC(=O)[C@H](CCCC)N(C)C(=O)[C@@H](Cc2ccccc2)NC(=O)CSC[C@@H](C(=O)NC)NC(=O)[C@H](CCCC)N(C)C(=O)[C@@H]2CCCN2C1=O
-5.10 | – | – | CCCC[C@@H]1NC(=O)[C@H](CCCC)N(C)C(=O)[C@H](CCCC)N(C)C(=O)[C@@H](Cc2ccccc2)NC(=O)CSC[C@@H](C(=O)NC)NC(=O)[C@H](CCCC)N(C)C1=O

Extract of 2 entries:

SMILES | PAMPA (log10 cm/s) | RRCK (log10 cm/s) | EPSA (Å2)
CCCC[C@@H]1NC(=O)[C@H](CCCC)N(C)C(=O)[C@H](CCCC)NC(=O)[C@H](CCCC)N(C)C(=O)[C@@H](Cc2ccccc2)NC(=O)CSC[C@@H](C(=O)NC)NC1=O | -4.60 | -5.82 | 75
CCCC[C@@H]1NC(=O)[C@H](Cc2ccccc2)NC(=O)CSC[C@@H](C(=O)NC)NC(=O)[C@H](CCCC)N(C)C(=O)[C@H](CCCC)NC(=O)[C@H](CCCC)N(C)C1=O | -4.30 | -5.41 | 74

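Conditions beyond the assay type are not listed; see the original paper. Other peptides of the study may be missing here. Peptides that the database sets to -10, its floor, are left out.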

Source: CycPeptMPDB (Li et al. 2023), which took these values from Golosov et al. 2021, doi:10.1021/acs.jmedchem.0c01505.